# Test results from publication PMC6522010.
# Chains of the proteins cited; added tags and fusions are not shown.
# UniProt Q9NTK5, whole entry: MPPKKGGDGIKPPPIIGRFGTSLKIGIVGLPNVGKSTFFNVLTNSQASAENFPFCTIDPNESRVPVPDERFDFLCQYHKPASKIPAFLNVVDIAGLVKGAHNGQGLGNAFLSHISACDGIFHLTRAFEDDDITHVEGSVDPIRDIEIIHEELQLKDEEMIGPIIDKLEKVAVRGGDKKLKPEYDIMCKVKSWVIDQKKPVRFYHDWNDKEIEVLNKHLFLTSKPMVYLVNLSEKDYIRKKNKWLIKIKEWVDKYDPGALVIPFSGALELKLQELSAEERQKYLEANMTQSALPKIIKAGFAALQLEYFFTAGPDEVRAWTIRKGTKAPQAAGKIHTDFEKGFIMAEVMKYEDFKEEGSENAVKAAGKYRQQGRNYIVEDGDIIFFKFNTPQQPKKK
# The list shows a part of the results.
# Biological target: Obg-like ATPase 1 (UniProt Q9NTK5)
# Test: mass-spectrometry hit list; affinity purification or IP with mass spectrometry
substance,measurement,value
"Nephrocystin-4, O75161",listed as a hit,yes
